{
  "source": "ChEMBL document CHEMBL4680277",
  "about": "“Targeting Metabolism of Extracellular Nucleotides via Inhibition of Ectonucleotidases CD73 and CD39” (J Med Chem, 2020)",
  "target": "T1, Ectonucleoside triphosphate diphosphohydrolase 1 (Homo sapiens, UniProt P49961)",
  "T1 sequence (P49961 whole entry)": "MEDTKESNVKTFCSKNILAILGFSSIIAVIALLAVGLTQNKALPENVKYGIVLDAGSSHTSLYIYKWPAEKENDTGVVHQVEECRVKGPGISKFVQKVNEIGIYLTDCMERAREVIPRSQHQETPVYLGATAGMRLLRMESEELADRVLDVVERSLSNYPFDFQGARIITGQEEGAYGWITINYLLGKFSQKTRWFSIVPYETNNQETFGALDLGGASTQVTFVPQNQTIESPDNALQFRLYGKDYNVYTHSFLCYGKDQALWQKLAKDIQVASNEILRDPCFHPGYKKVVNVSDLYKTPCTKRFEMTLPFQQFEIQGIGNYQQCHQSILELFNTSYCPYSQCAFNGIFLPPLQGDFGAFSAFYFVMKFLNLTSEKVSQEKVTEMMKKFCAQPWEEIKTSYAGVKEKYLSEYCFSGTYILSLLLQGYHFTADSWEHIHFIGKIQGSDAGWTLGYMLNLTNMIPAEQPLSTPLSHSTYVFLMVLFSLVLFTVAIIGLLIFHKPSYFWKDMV",
  "data": [
    {"smiles": "CCN(CC)c1ncnc2c1ncn2[C@@H]1O[C@H](COP(=O)(O)OP(=O)(O)C(Br)(Br)P(=O)(O)O)[C@@H](O)[C@H]1O", "values": [
      {"measurement": "Ki", "value": 11, "unit": "µM"}
    ]}
  ]
}
